Measured values reported in patent US10676505B2, “Tripeptides having angiotensin converting enzyme inhibitory activity and uses thereof” (SUNSTAR INC., priority 2016, dated 2020).

Amino acid sequences for entries named in this document (tags omitted). Residues count along the entry.
UniProt P12821, 30-1306, species assumed: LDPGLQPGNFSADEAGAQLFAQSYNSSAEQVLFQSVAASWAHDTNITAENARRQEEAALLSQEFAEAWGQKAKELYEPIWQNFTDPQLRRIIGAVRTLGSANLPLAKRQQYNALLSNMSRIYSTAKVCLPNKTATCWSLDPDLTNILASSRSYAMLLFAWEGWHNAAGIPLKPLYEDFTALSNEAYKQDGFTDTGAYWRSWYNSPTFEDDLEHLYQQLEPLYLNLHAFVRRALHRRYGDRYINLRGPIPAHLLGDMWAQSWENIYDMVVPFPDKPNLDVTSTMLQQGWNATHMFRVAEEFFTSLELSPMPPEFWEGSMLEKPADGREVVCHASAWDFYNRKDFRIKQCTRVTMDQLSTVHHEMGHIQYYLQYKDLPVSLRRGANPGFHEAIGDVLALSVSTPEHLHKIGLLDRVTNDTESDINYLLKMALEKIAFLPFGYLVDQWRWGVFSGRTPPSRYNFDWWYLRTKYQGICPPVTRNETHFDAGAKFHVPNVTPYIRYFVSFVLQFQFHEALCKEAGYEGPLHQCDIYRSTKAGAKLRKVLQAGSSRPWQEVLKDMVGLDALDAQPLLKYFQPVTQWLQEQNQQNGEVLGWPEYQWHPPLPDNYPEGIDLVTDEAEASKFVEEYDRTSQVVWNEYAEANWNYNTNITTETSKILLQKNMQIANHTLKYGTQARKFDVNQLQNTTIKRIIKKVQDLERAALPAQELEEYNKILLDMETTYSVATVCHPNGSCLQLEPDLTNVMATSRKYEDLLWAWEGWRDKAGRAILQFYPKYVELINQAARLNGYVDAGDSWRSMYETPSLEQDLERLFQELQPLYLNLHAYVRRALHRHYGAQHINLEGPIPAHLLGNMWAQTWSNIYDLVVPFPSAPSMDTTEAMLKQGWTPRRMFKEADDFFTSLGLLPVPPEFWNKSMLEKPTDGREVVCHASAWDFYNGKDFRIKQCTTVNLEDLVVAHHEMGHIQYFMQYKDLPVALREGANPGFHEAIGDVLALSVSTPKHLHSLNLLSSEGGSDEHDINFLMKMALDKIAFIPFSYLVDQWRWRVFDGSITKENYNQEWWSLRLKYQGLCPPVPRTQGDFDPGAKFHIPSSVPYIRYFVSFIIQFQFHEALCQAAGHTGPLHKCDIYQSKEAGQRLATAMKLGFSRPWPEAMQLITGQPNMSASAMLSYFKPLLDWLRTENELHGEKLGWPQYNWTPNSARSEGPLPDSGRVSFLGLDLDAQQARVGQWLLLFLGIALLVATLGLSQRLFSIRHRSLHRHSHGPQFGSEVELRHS

Legend:
[1] = target: T1, ACE (Homo sapiens, UniProt P12821); experiment: Measurement of ACE inhibitory activity (ACE Kit-WST); type: biochemical; settings: 3HB-GGG substrate, N=3
T1 construct: purchased Dojindo Laboratories ACE Kit-WST
Description: Ultrapure water was added to the LRA peptide synthesized in Production Example 1 to prepare a 300 μM aqueous solution. Subsequently, 300-μM, 150-μM, 75-μM, and 30-μM aqueous solutions were each prepared by gradual dilution. These aqueous solutions were used as samples.
The ACE inhibitory activity of each sample was measured using an ACE inhibitory activity measurement kit (trade name: ACE Kit-WST, produced by Dojindo Laboratories). The kit is used to detect 3-hydroxybutyric acid (3HB) cut from 3-hydroxybutyryl-Gly-Gly-Gly (3HB-GGG) by an enzyme method. The operation was carried out according to the instruction manual of the kit, and the ACE inhibitory activity of each sample was measured (N=3). In the kit, the final concentration of the LRA peptide in each sample drops to ⅓.

[2] = system: spontaneously hypertensive rats (SHR/Izm); experiment: Examination of blood pressure-lowering action in spontaneously hypertensive rats (tail-cuff method); type: in vivo, rat; settings: male SHR/Izm rats, 0.25 mg/kg oral, 2 hours and 4 hours after administration, N=5, p<0.05
Text: Male spontaneously hypertensive rats (SHR/Izm, 12 weeks old) were used as experimental animals. The feed used was solid SP feed (Funabashi Farm), and the drinking water used was tap water. Food intake and drinking water were unrestricted, including during the test. The rats after a habituation period of three weeks were used for the main test. The rats were divided into two groups: an LRA peptide administration group and a control group (each group: N=5).
The LRA peptide synthesized in Production Example 2 was dissolved in physiological saline to prepare a 0.25-mg/ml peptide solution. In the LRA peptide administration group, 0.25 mg/kg of the peptide solution was forcibly administered orally into the stomach by using a 1-ml-volume syringe and a Teflon (registered trademark) stomach tube. In the control group, physiological saline was forcibly orally administered in the same manner as in the sample administration group. Systolic blood pressure was measured by the tail-cuff method before administration, and 2 hours and 4 hours after administration. In the measurement of blood pressure, a blood pressure monitor (MK-2000ST, produced by Muromachi Kikai Co., Ltd.) was used. The degree of reduction in the systolic blood pressure 2 hours and 4 hours after administration compared with the systolic blood pressure before administration was used as an indicator.

IC50 [1]: 62 µM
SMILES: CC(C)C[C@H](N)C(=O)N[C@@H](CCCNC(=N)N)C(=O)N[C@@H](C)C(=O)O [LRA peptide, Leu-Arg-Ala]
reduction in systolic blood pressure compared with the control group [2]: significant reduction in systolic blood pressure
